Like-named read-outs stand apart in the source and are kept apart here.
Molecular target: hTRPV3 (Homo sapiens (Human), UniProt Q8NET8)
Experiment: Whole-cell patch clamp, hTRPV3 Phase 1 / Phase 2 currents
Type: cell-based
Description: Whole-cell patch clamp experiments permit the detection of currents through the TRPV3 channel in the cell line described above. A glass electrode is brought into contact with a single cell and the membrane is then ruptured, permitting control of the voltage of the cell membrane and measurement of currents flowing across the membrane using the amplifier attached to the electrode. A perfusion system permits control of the extracellular solution, including the addition of blockers and activators of the current. The current can be activated by heating this solution to 28° C. or warmer or by addition of 20 μM 2-APB to the solution.
TRPV3 cells were induced 20-48 hours, removed from growth plates, and replated at low density (to attain good single-cell physical separation) on glass coverslips for measurement. In some cases, cells were grown in low density overnight on glass coverslips. Patch clamp recordings were made in the whole-cell mode with a holding potential of −40 mV. Every 5 seconds, a voltage ramp was applied from −120 to +100 mV, 400 ms in duration. Currents elicited were quantified at −80 mV and +80 mV. […] External solution was Ringer's solution described above.
P1 refers to the Phase 1 current for human (h) TRPV3, and P2 refers to the Phase 2 current for human (h) TRPV3. […]

Amino acid sequences for entries named in this document (tags omitted). A change or cut given only in a name is not applied to a line headed by its entry.
UniProt Q8NET8: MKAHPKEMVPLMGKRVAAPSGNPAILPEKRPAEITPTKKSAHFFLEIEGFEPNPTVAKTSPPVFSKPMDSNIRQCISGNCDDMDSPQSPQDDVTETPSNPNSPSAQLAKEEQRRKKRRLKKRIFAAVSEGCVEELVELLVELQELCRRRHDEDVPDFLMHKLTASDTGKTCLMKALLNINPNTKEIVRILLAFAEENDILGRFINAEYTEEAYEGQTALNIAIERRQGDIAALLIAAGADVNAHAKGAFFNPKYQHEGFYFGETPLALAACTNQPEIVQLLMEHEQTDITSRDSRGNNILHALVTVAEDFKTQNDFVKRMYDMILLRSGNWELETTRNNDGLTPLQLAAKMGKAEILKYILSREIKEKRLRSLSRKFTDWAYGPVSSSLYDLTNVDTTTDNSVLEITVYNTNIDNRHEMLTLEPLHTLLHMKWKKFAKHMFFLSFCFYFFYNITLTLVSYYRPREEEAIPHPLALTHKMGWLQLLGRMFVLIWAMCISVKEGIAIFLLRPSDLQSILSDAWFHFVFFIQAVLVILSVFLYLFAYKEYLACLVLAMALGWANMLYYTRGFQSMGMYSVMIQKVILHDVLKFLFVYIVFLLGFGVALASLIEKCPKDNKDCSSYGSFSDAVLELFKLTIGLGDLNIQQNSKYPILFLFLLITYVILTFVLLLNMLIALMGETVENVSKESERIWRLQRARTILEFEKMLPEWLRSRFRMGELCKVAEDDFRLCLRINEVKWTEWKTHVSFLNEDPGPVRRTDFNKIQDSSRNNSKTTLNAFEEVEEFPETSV

Compound | IC50 (Phase 1 current, inward, whole-cell patch clamp, read-out: hTRPV3 Patch P1 Inwd) [nM] | IC50 (hTRPV3 Patch P1 Inwd (nM)) [nM]
CN(C)C(=O)c1ccccc1N1CC[C@H](Oc2ccc(C(F)(F)F)cn2)C1 [Compound 1-48, (S)—N,N-dimethyl-2-(3-(5-(trifluoromethyl)pyridin-2-yloxy)pyrrolidin-1-yl)benzamide] | > 1000 | 
CN(C)C(=O)c1ccccc1N1CC[C@@H](Oc2ccc(C(F)(F)F)cn2)C1 [Compound 1-59, (R)—N,N-dimethyl-2-(3-(5-(trifluoromethyl)pyridin-2-yloxy)pyrrolidin-1-yl)benzamide] |  | > 1000

Source: patent US12435061B2 (priority 2020, dated 2025)
